{"sequences": {"note": "Chains of the proteins cited; added tags and fusions are not shown. Residues count along the entry.", "UniProt P30882, 24-91": "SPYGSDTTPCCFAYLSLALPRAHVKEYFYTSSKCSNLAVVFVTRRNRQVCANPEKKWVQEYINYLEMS"}, "source": "paper PMC6603201", "experiment_in_all_cases": "SPR; CBP-FLAG immobilised by amine coupling on a CM5 chip (300-400 RU, 10 mM sodium acetate pH 4.5); serial dilutions of mouse chemokine flowed in triplicate for 3 min, 10 min dissociation; 25°C; HBS-EP buffer (20 mM HEPES, 150 mM NaCl, 3.4 mM EDTA, 0.005% Polysorbate 20, pH 7.4); Biacore X100; global fit with a 1:1 binding model", "key": {"[1]": {"molecular_target": "PVNZ112.3-CBP (Parapoxvirus of red deer in New Zealand (PVNZ), strain RD86)"}, "[2]": {"molecular_target": "PVNZ112.6-CBP (Parapoxvirus of red deer in New Zealand (PVNZ), strain RD86)"}, "[3]": {"molecular_target": "PVNZ112.0-CBP (Parapoxvirus of red deer in New Zealand (PVNZ), strain RD86)"}}}
{"substance": "recombinant mouse CCL5 (from UniProt P30882 24-91) (ligand)", "values": [{"measurement": "Kd", "setting": "[1]", "value": 31.5, "unit": "nM"}, {"measurement": "koff", "setting": "[1]", "value": 0.052, "unit": "s⁻¹"}, {"measurement": "kon", "setting": "[1]", "value": "1.65e+06", "unit": "M⁻¹ s⁻¹"}, {"measurement": "Kd", "setting": "[2]", "value": 1.74, "unit": "nM"}, {"measurement": "koff", "setting": "[2]", "value": 0.0479, "unit": "s⁻¹"}, {"measurement": "kon", "setting": "[2]", "value": "2.75e+07", "unit": "M⁻¹ s⁻¹"}, {"measurement": "Kd", "setting": "[3]", "value": "> 230", "unit": "nM"}]}
